Values quoted from earlier work, collected in patent publication US20260224597A1, “METHODS FOR ACTIVATING IMMUNE CELLS TO KILL BACTERIA” (The Texas A&M University System, priority 2023, published 2026).

Chains of the proteins cited; added tags and fusions are not shown.
UniProt Q92551, whole entry: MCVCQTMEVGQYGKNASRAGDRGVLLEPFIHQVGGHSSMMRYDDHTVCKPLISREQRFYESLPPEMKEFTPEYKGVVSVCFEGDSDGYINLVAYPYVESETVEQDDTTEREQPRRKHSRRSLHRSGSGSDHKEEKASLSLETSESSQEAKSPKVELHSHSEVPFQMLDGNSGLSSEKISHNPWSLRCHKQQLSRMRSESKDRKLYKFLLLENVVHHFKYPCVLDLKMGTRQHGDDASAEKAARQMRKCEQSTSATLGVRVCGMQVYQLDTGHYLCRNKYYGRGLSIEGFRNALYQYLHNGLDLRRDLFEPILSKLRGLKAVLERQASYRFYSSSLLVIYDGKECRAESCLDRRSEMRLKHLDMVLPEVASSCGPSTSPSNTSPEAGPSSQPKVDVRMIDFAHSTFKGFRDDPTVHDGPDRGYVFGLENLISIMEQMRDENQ

Biological target: IP6K1 (Homo sapiens, UniProt Q92551)
Conditions: read-out: IC50 as to IP6K1; Liao 2021; cited from earlier work

Q: With `O=C(O)c1ccc2c(c1)C1(CCN(C(=O)c3ccc(Cl)cc3)CC1)C(=O)N2` as the compound, how does the IC50 read?
A: 20 nM
